Results as given in publication PMC10419047, “Enzymatic Redox Properties and Cytotoxicity of Irreversible Nitroaromatic Thioredoxin Reductase Inhibitors in Mammalian Cells” (2023).

Protein sequences, listed by entry. Tags and fused reporters are not part of them. Residues count along the entry.
UniProt P00390, 44-522 limits assumed: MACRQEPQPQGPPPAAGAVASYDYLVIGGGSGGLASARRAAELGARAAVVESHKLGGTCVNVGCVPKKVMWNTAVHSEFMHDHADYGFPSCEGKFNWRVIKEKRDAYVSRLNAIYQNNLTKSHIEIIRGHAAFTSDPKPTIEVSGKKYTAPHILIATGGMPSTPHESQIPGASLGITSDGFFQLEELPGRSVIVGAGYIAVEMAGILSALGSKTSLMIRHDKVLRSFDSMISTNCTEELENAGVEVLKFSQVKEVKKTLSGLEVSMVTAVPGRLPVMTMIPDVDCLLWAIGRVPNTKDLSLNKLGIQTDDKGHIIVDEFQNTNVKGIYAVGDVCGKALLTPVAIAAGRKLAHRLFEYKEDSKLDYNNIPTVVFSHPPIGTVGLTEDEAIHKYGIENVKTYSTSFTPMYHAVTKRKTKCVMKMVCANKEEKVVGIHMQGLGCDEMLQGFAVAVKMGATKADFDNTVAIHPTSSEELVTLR
UniProt P05982, 2-274 limits assumed: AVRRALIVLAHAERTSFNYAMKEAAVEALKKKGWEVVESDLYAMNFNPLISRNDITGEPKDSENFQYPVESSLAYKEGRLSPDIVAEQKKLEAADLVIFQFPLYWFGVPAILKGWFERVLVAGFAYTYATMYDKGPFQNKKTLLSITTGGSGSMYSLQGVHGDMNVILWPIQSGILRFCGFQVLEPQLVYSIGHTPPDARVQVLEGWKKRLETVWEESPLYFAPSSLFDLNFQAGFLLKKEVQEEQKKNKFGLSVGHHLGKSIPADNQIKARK
UniProt O89049, whole entry: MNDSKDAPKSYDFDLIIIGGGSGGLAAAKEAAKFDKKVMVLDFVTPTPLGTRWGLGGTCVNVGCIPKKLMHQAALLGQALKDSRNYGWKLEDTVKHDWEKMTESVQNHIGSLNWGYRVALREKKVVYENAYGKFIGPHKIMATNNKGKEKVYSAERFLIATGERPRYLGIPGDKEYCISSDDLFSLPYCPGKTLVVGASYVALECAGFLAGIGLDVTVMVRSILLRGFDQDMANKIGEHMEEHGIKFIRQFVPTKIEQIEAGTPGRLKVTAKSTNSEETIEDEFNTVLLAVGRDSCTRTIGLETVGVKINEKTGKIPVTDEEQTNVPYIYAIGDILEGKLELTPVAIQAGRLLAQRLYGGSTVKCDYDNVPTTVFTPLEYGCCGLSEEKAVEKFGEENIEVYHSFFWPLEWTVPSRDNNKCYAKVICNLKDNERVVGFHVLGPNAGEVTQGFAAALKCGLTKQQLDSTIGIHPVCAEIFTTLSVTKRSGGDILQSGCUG

Legend:
[1] = single-electron reduction midpoint potential, pH 7.0; cited from earlier work
MH22a cells [2] = conditions: read-out: MH22a cL50; previous data; cited from earlier work
HCT-116 cells = conditions: read-out: HCT-116 GI50; previous data; cited from earlier work
[3] = tested on: rat cytosolic enzyme (TrxR1); conditions: cited from earlier work
[4] = tested on: GR in the lysates of MH22a and HCT-116 cells; experiment: GR activity in cell lysates; conditions: 10 µM compound, t = 0 vs 20 min incubation with NADPH; 37 °C
[5] = tested on: TrxRs (human TrxR2 and rat TrxR1); experiment: Stimulation of NADPH:oxidase activity of TrxRs ('subversive substrate' action); conditions: 100 µM compound
[6] = tested on: human mitochondrial enzyme (TrxR2); conditions: cited from earlier work
MH22a cells [7] = experiment: Modulation of cytotoxicity in MH22a cells by antioxidants, dicoumarol and cytochrome P-450 inhibitors; conditions: compound 10.0 µM
[8] = target: human glutathione reductase (HGR) (Homo sapiens, UniProt P00390); conditions: cited from earlier work
HGR = HGR (Homo sapiens, UniProt P00390); experiment: Reversible inhibition and inactivation of HGR; conditions: read-out: HGR IC50; 50% decrease of initial rate (t = 0, reversible inhibition); pH 7.0, 25 °C; 200 µM NADPH, 1.0 mM GSSG
GR = conditions: 50 µM, 4 h, cited from earlier work
[9] = tested on: TrxR in the lysates of MH22a and HCT-116 cells; experiment: TrxR activity in cell lysates; conditions: 10 µM compound, up to 20 min
[10] = target: NAD(P)H:quinone oxidoreductase (NQO1) (Rattus norvegicus, UniProt P05982); conditions: cited from earlier work
TrxR = conditions: 50 µM, 4 h, cited from earlier work
human TrxR1 = conditions: cited from earlier work
Rat TrxR1 = Rat TrxR1 (Rattus norvegicus, UniProt O89049); experiment: Reversible inhibition and inactivation of rat TrxR1; conditions: read-out: Rat TrxR1 IC50; 50% decrease of initial rate (t = 0, reversible inhibition); pH 7.0, 25 °C; 200 µM NADPH, 2.0 mM DTNB

SMILES | E^1_7 [1] | IC50 (MH22a cells [2]) | GI50 (HCT-116 cells) | kcat rat cytosolic TrxR1 [3] | time-dependent inhibition of GR in cell lysates [4] | increase of NADPH:oxidase activity of TrxRs [5] | kcat human mitochondrial TrxR2 [6] | Cell Viability (%) Additions: None (MH22a cells [7]) | kcat HGR [8] | IC50 (HGR) | Residual Activity (%) GR (GR; A549 cells) | Residual Activity (%) GR (GR; HeLa cells) | inhibition of TrxR in cell lysates in short-term experiments [9] | kcat NQO1 [10] | Residual Activity (%) TrxR (TrxR; A549 cells) | Residual Activity (%) TrxR (TrxR; HeLa cells) | kcat human TrxR1 (human TrxR1) | IC50 (Rat TrxR1)
O=[N+]([O-])c1cccc([N+](=O)[O-])c1 | −0.345 V | 130 µM | 350 µM | – | – | – | – | – | – | – | – | – | – | – | – | – | – | –
Cc1c([N+](=O)[O-])cc([N+](=O)[O-])cc1[N+](=O)[O-] | −0.253 V | 17.4 µM | 40 µM | – | – | – | – | – | – | – | – | – | – | – | – | – | – | –
CN(c1c([N+](=O)[O-])cc([N+](=O)[O-])cc1[N+](=O)[O-])[N+](=O)[O-] | −0.191 V | 7 µM | 8 µM | 1.8 s⁻¹ | almost absent | 12–14 times | 0.7 s⁻¹ | 45.5 ± 4.2% | ≥ 5 s⁻¹ | 14 µM | 100% | 100% | efficiently inhibited | 73 s⁻¹ | 80% | 75% | 2.9 s⁻¹ | 10 µM

Like-named read-outs stand apart in the source and are kept apart here. Only a part of the results on these compounds is given; other tests are left out.
